# Reference: the supplement of paper PMC11537057
# Counter-ions that a name gives are not always drawn. ± gives the standard deviation of the averaged measurements. This list holds what a sample rich in highest values left over.
# Tested on: A549 infected with HSV-1
# Assay: cell number in HSV-1-infected wells relative to infected DMSO wells (H2B-RFP signal); higher = more surviving cells (uninfected or antiviral-protected wells give about 200%; low = toxicity)
# Details: 10 µM; 48 h; MOI: 0.1
# Description: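 Selleck FDA-approved library (L1300) screened in duplicate at 10 µM on A549 H2B-mRuby cells in 384-well plates, infected with HSV-1 strain 17 YFP-ICP4 at MOI 0.1 one hour before drug addition. Imaged after 2 days at 37°C. Cell growth (H2B-RFP) and infection (ICP4-YFP) are expressed as % of DMSO-treated wells. Hits: growth >90% and infection <20% of DMSO.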
row,SMILES,cell number in HSV-1-infected wells
1,CC[C@H](C)[C@H](NC(=O)[C@H](CCC(=O)O)NC(=O)C(CCC(=O)O)NC(=O)[C@H](Cc1ccccc1)NC(=O)C(CC(=O)O)NC(=O)CNC(=O)C(CC(N)=O)NC(=O)CNC(=O)CNC(=O)CNC(=O)CNC(=O)[C@@H]1CCCN1C(=O)[C@H](CCCNC(=N)N)NC(=O)[C@@H]1CCCN1C(=O)[C@@H](N)Cc1ccccc1)C(=O)N1CCC[C@H]1C(=O)N[C@@H](CCC(=O)O)C(=O)N[C@@H](CCC(=O)O)C(=O)N[C@@H](Cc1ccc(O)cc1)C(=O)N[C@@H](CC(C)C)C(=O)O (stereo partly specified) [Bivalirudin Trifluoroacetate],114 ± 10%
